The source of these data is ChEMBL document CHEMBL1133477, “Discovery of novel p-arylthio cinnamides as antagonists of leukocyte function-associated antigen-1/intracellular adhesion molecule-1 interaction. 1. Identification of an additional binding pocket based on an anilino diaryl sulfide lead” (J Med Chem, 2000).

Protein sequences, listed by entry. Tags and fused reporters are not part of them. Lines headed by an entry give the natural chain unless they say otherwise; changes in a name come on top.
UniProt P05107, whole entry: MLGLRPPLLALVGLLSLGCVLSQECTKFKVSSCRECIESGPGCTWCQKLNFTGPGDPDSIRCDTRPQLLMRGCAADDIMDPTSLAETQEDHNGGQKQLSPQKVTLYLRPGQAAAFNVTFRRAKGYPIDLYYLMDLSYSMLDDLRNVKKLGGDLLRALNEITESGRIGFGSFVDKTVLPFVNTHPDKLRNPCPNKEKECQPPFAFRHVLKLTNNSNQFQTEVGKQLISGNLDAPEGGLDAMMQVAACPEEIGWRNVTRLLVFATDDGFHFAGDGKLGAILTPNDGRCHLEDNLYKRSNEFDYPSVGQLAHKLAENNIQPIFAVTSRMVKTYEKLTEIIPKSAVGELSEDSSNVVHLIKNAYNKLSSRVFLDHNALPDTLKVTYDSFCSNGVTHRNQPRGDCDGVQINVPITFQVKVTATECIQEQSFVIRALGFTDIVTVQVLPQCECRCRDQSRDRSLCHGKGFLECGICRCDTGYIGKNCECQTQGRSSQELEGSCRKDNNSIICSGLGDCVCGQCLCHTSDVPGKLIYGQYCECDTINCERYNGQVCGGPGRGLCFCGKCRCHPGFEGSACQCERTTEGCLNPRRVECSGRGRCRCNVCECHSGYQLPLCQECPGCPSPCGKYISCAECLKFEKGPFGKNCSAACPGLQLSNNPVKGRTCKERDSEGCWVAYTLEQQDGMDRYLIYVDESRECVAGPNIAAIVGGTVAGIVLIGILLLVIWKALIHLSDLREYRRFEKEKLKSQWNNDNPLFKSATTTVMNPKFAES
UniProt P20701: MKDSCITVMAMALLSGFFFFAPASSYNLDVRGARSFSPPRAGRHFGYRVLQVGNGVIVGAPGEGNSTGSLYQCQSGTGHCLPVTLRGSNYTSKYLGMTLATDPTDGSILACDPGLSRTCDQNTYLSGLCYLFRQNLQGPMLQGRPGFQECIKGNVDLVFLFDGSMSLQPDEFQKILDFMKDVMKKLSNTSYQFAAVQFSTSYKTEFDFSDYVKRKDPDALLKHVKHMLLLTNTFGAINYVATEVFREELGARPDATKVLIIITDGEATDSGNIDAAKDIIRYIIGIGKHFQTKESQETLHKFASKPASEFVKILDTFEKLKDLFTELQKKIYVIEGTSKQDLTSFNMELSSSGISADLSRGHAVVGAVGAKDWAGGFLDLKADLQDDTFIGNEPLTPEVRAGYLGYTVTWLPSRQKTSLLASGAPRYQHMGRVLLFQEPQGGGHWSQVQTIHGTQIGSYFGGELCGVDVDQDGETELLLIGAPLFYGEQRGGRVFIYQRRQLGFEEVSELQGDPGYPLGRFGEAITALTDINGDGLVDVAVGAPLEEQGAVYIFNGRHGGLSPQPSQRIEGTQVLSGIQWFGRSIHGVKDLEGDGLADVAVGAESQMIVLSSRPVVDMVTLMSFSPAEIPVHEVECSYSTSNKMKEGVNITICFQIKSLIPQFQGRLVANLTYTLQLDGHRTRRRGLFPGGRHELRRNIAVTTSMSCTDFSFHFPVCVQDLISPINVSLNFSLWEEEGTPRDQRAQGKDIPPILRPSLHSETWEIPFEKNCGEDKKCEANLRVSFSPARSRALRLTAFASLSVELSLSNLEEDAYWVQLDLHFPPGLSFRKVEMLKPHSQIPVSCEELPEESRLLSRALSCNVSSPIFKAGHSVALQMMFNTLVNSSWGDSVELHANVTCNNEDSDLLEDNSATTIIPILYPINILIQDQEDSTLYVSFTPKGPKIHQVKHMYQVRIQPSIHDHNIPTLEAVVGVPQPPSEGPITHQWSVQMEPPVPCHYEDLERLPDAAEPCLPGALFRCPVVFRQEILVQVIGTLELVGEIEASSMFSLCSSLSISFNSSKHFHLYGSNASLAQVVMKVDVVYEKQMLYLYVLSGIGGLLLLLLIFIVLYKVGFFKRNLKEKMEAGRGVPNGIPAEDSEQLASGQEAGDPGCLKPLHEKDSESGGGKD

The test concerns the target Intercellular adhesion molecule (ICAM-1), Integrin alpha-L/beta-2 (Homo sapiens, UniProt P05107+P20701). Kind of test: Ability to block the interaction between integrin LFA-1 and its adhesion partner ICAM-1 in a time-resolved fluorescent LFA-1/ICAM-1 biochemical interaction assay. In kind it is protein-complex assay.

The structures appear in SMILES notation. pIC50: −log10 of the molar value.

As to `CC(=O)N1CCN(C(=O)/C=C/c2ccc(Sc3ccccc3C(C)C)c([N+](=O)[O-])c2)CC1` [A-286982], the pIC50 was 7.36.

The pIC50 is the negative decadic logarithm of the IC50, by convention in mol/L. A higher pIC50 goes with a low IC50.
